Data published in article PMC9233935 (Journal of medicinal chemistry, 2022).

Assay: physchem
Conditions: pH 7.4

SMILES: C[C@@H]1CN2c3c(cc4c(N5CC[C@H](O)C5)noc4c3F)CC3(C(=O)NC(=O)NC3=O)[C@H]2[C@H](C)O1 [Compound 8, (2R,4S,4aS)-11-fluoro-8-((S)-3-hydroxypyrrolidin-1-yl)-2,4-dimethyl-1,2,4,4a-tetrahydro-2’H,6H-spiro[isoxazolo[4,5-g][1,4]oxazino[4,3-a]quinoline-5,5’-pyrimidine]-2’,4’,6’(1’H,3’H)-trione]
- logD at 3 h: 1.4

SMILES: C[C@@H]1CN2c3c(cc4c(OC[C@@H]5CCC(=O)N5)noc4c3F)CC3(C(=O)NC(=O)NC3=O)[C@H]2[C@H](C)O1 [Compound 23, (2R,4S,4aS)-11-fluoro-2,4-dimethyl-8-(((S)-5-oxopyrrolidin-2-yl)methoxy)-1,2,4,4a-tetrahydro-2’H,6H-spiro[isoxazolo[4,5-g][1,4]oxazino[4,3-a]quinoline-5,5’-pyrimidine]-2’,4’,6’(1’H,3’H)-trione]
- logD at 3 h: 1.4
